Laboratory results taken from paper PMC9709720, “An orally available small molecule that targets soluble TNF to deliver anti-TNF biologic-like efficacy in rheumatoid arthritis” (Frontiers in Pharmacology, 2022).

The chains behind the UniProt entries cited, without tags or fusion partners. Where a name states a change or a piece, a line headed by the entry shows the natural chain unless it says otherwise. A line that says so, or that is headed by a name, gives the form on record, which may keep a tag or linker. Residues count along the entry.
UniProt P01375, 77-233 limits assumed: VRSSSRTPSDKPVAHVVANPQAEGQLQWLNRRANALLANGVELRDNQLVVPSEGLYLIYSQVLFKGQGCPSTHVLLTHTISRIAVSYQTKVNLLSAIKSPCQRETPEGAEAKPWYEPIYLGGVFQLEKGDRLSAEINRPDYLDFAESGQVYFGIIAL
UniProt P01375, with tags, fused parts or gaps DEL77-88: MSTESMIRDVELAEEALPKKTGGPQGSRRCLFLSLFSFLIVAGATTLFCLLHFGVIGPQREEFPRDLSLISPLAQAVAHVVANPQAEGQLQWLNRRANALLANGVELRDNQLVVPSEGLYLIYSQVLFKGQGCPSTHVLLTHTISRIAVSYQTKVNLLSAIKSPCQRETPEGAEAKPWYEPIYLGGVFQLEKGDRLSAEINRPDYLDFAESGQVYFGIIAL

What was measured:
human TNF [1] = molecular target: T1, human TNF (Homo sapiens, UniProt P01375); experiment: Surface plasmon resonance binding of SAR441566 to TNF (Biacore T200); details: SPR, average n = 4
[2] = test system: TNF (zymosan-activated CD11b expression on granulocytes in human whole blood); experiment: Zymosan stimulated CD11b expression on granulocytes in human whole blood (WB assay); details: read-out: IC90 inhibition of CD11b expression, total compound, geometric mean
human TNF [3] = molecular target: T1, human TNF; experiment: TNF occupancy in zymosan activated human whole blood (ELISA, compound-bound/total TNF)
Caco-2 TC7 cells = experiment: Permeability and bi-directional flux/efflux in Caco-2 TC7 cells; type: in vitro ADME; details: for Efflux: no inhibitor
human hepatocytes = experiment: In vitro metabolic clearance in suspended human hepatocytes
[4] = Fraction unbound in plasma by equilibrium dialysis
pKa = type: physicochemical; details: tertiary amine
In vivo PK in rat = details: male
In vivo PK in dog = details: male; for Bioavailability: i.v. and p.o. exposure from different studies
[5] = In vivo PK in cynomolgus monkey; details: Cyno, male; for Bioavailability: i.v. and p.o. exposure from different studies
[6] = test system: collagen-induced arthritis (CIA) model; experiment: Collagen-induced arthritis (CIA) model, therapeutic dosing; details: for Percentage reduction in mean AUC cfb arthritis score vs vehicle: 20 days, combined 3 CIA studies
[7] = test system: collagen-induced arthritis (CIA) model, hind-paw bone; experiment: 3D volumetric micro-CT of limb bones from CIA model
[8] = test system: free soluble TNF in human synovial tissue; experiment: Quantitative systems pharmacology (QSP) model of TNF in synovial tissue; details: across in vitro, in vivo and QSP systems
[9] = Human PK prediction (allometry, IVIVE, mechanistic Vss)
[10] = molecular target: human membrane TNF (NSO-mTNFΔ1-12 cells) (Homo sapiens, UniProt P01375, DEL77-88); experiment: Binding kinetics to membrane TNF on NSO-mTNFΔ1-12 cells (CA 1974 antibody, flow cytometry); details: NSO-mTNF cells, 0.1 μM
[11] = total compound (includes protein bound), geometric mean n = 12

Kd (human TNF [1]): 15.1 nM
ka (human TNF [1]): 1,471 M^−1s^−1
t1/2 (human TNF [1]): 9.0 h
IC90 [2]: 163 nM
OCC50 (50% TNF occupancy) (human TNF [3]; [11]): 14.3 nM
OCC90 (90% TNF occupancy) (human TNF [3]; [11]): 64.3 nM
TNF occupancy plateau (human TNF [3]; zymosan-stimulated whole blood plasma): around 100%
Efflux (Caco-2 TC7 cells; BSA 0.5%/0.5% pH 7.4/7.4, 1 μM): 208 nM/s
Efflux (Caco-2 TC7 cells; BSA 0.5%/0.5% pH 7.4/7.4, 20 μM): 64.8 nM/s
Permeability (Caco-2 TC7 cells; Caco-2 TC7 cells validated for BCS classification, in the presence of a P-gp inhibitor): High
Permeability class (Caco-2 TC7 cells; Caco-2 TC7 cells, at saturating concentrations): high permeable
Efflux transporter substrate property (Caco-2 TC7 cells; bi-directional flux/efflux with PSC833 (P-gp) and Ko-143 (BCRP) inhibitors): P-gp substrate
Clearance (in vitro intrinsic) (human hepatocytes): 8.0 µl/min/10^6 cells
Fraction unbound human plasma [4]: 25%
pKa (pKa): 8.6
AUCinf (In vivo PK in rat; IV, 1 mg/kg): 731 ng·h/mL
CL (In vivo PK in rat; IV, 1 mg/kg): 23 mL/min/kg
Cmax (In vivo PK in rat; IV, 1 mg/kg): 424 ng/mL
T1/2,z (In vivo PK in rat; IV, 1 mg/kg): 2.1 h
Vz (In vivo PK in rat; IV, 1 mg/kg): 4.1 L/kg
AUCinf (In vivo PK in rat; PO, 3 mg/kg): 573 ng·h/mL
Bioavailability (In vivo PK in rat; PO, 3 mg/kg): 26%
Cmax (In vivo PK in rat; PO, 3 mg/kg): 73.6 ng/mL
tmax (In vivo PK in rat; PO, 3 mg/kg): 4 h
AUCinf (In vivo PK in dog; IV, 1 mg/kg): 4,200 ng.h/ml
CL (In vivo PK in dog; IV, 1 mg/kg): 4.45 mL/min/kg
Cmax (In vivo PK in dog; IV, 1 mg/kg): 1,510 ng/ml
T1/2,z (In vivo PK in dog; IV, 1 mg/kg): 7.00 h
Vz (In vivo PK in dog; IV, 1 mg/kg): 2.68 L/kg
AUCinf (In vivo PK in dog; PO, 30 mg/kg): 131 000 ng.h/ml
Cmax (In vivo PK in dog; PO, 30 mg/kg): 6,920 ng/ml
tmax (In vivo PK in dog; PO, 30 mg/kg): 2 h
Bioavailability (In vivo PK in dog; PO, 30 mg/kg): 108 ^b %
AUCinf (In vivo PK in dog; PO, 100 mg/kg): 258 000 ng.h/ml
Cmax (In vivo PK in dog; PO, 100 mg/kg): 6,320 ng/ml
tmax (In vivo PK in dog; PO, 100 mg/kg): 7 h
Bioavailability (In vivo PK in dog; PO, 100 mg/kg): 62 ^b %
AUCinf ([5]; IV, 1 mg/kg): 2,970 ng.h/ml
CL ([5]; IV, 1 mg/kg): 5.92 mL/min/kg
Cmax ([5]; IV, 1 mg/kg): 774 ng/mL
T1/2,z ([5]; IV, 1 mg/kg): 6.66 h
Vz ([5]; IV, 1 mg/kg): 2.59 L/kg
AUCinf ([5]; PO, 3 mg/kg): 6,620 ng.h/ml
Cmax ([5]; PO, 3 mg/kg): 609 ng/mL
tmax ([5]; PO, 3 mg/kg): 2 h
Bioavailability ([5]; PO, 3 mg/kg): 67 ^b %
AUCinf ([5]; PO, 10 mg/kg): 20 000 ng.h/ml
Cmax ([5]; PO, 10 mg/kg): 1,250 ng/ml
tmax ([5]; PO, 10 mg/kg): 6 h
Bioavailability ([5]; PO, 10 mg/kg): 68 ^b %
AUCinf ([5]; PO, 20 mg/kg): 45 200 ng.h/ml
Cmax ([5]; PO, 20 mg/kg): 2,490 ng/ml
tmax ([5]; PO, 20 mg/kg): 8 h
Bioavailability ([5]; PO, 20 mg/kg): 77 ^b %
AUCinf ([5]; PO, 100 mg/kg): 107 000 ng.h/ml
Cmax ([5]; PO, 100 mg/kg): 3,640 ng/ml
tmax ([5]; PO, 100 mg/kg): 6 h
Bioavailability ([5]; PO, 100 mg/kg): 36 ^b %
free average exposure ([6]; CIA mice, 10 mg/kg BID): 24 nM
human hepatic clearance ([9]; in vitro-in vivo extrapolation with correction for albumin binding): 7 mL/min/kg
human hepatic clearance ([9]; in vitro-in vivo extrapolation without correction for albumin binding): 13.5 mL/min/kg
predicted human Vss ([9]; simple three-species allometry): 6.4 L/kg
predicted total human i.v. clearance ([9]; simple three-species allometry): 6.67 mL/min/kg
TNF-compound complex formation on cell surface compared to similar compounds of the same series [10]: fastest
Structure (SMILES): CN1C(=O)c2cccc(OC(F)F)c2[C@H]2C[C@@H]1c1nc3ccc(-c4cnc(C5(N)CCC5)nc4)cc3n12
Percentage reduction in mean AUC cfb arthritis score vs vehicle ([6]; 1 mg/kg orally BID): -15%
Percentage reduction in mean AUC cfb arthritis score vs vehicle ([6]; 3 mg/kg orally BID): 12%
Probability of reducing AUC of disease score by more than 50% ([6]; 10 mg/kg BID, Bayesian analysis): 0.87
Percentage reduction in mean AUC cfb arthritis score vs vehicle ([6]; 10 mg/kg orally BID): 68%
Probability of reducing AUC of disease score by 50% ([6]; 30 mg/kg BID, Bayesian analysis): 0.99
Percentage reduction in mean AUC cfb arthritis score vs vehicle ([6]; 30 mg/kg orally BID): 84%
bone volume fraction (BV/TV, %) of hind-paws compared to vehicle group ([7]; 10 mg/kg BID): significantly higher
bone volume fraction (BV/TV, %) of hind-paws compared to vehicle group ([7]; 30 mg/kg BID): significantly higher
predicted target range free Cav [8]: 8 to 24 nM

Marks after values point to notes of the source that are not given here.
